{"source": "patent US6689302B2", "about": "“Method of making an antimicrobial tympanostomy tube” (Medtronic Xomed, Inc., priority 1993, dated 2004)", "test_system": "round window membrane in the ear of guinea pigs", "assay": "Otologic tissue compatibility, samples placed on round window membrane", "conditions": "guinea pig ear", "data": [{"substance": "silver oxide [100% silver oxide powder]", "values": [{"measurement": "otologic tissue compatibility (irritation or inflammation)", "result": "hair cell losses and adhesions"}]}]}
